The values that follow come from patent US7964736B2, “Phosphagen synthesis” (Nour Heart, Inc., priority 2004, dated 2011).

One data set has as its system heart (cardioprotection). Nature of the data set: Dose-response study of cardioprotective effect. In kind it is in vivo.
For data set [1], the system named is rat hearts, normothermic cardioplegic arrest. The note with it: ischemia time 40 min; cited from earlier work.
Data set [2] deals with rat hearts, hypothermic cardioplegic arrest. As to conditions: cited from earlier work.
The test system of a further data set is rat hearts, cold storage. As to conditions: cited from earlier work.
For data set [3] the following is noted: compared with CrP; cited from earlier work.

Like-named read-outs stand apart in the source and are kept apart here.

Consider `N=C1N(CC(=O)O)CCN1P(=O)(O)O`, for which the cardioprotective effect result is listed as “not” in the data set on heart (cardioprotection) (300 mg/kg), “strong cardioprotective effect” in the data set with heart (cardioprotection) (484 mg/kg), “strong cardioprotective effect” in the data set with heart (cardioprotection) (667 mg/kg) and “strong cardioprotective effect” in the data set on heart (cardioprotection) (1000 mg/kg). The “results (restoration of cardiac function)” value in data set [1], in data set [2] (ischemia time 2.5 hrs) and in data set [2] (ischemia time 6 hrs) was “Restoration” in each case. In addition, the “functional recovery during reperfusion” value in the data set with rat hearts, cold storage (after 6 hours of cold storage) is “improved functional recovery”. In addition, in the data set with rat hearts, cold storage (compared to control untreated hearts), the “increase in heart weight” value is listed as “significantly reduced”. For the same compound, the “leakage of creatine kinase (CK) during reperfusion” value in the data set with rat hearts, cold storage (rat, in vivo) is “no significant leakage”. The “myocardial cell injury, as measured by electron microscopy” value with rat hearts, cold storage (treated versus control group) was “no detectable difference”. Moreover, the “Gibbs standard free energy of hydrolysis” value in data set [3] was “substantially less negative”.
